Assay results: US7855292B2, “Sulfonamide compounds” (Janssen Pharmaceutica NV, priority 2004, dated 2010)

Sequences of proteins named here, by UniProt entry; tags and fusion partners are left off.
UniProt P32238, whole entry: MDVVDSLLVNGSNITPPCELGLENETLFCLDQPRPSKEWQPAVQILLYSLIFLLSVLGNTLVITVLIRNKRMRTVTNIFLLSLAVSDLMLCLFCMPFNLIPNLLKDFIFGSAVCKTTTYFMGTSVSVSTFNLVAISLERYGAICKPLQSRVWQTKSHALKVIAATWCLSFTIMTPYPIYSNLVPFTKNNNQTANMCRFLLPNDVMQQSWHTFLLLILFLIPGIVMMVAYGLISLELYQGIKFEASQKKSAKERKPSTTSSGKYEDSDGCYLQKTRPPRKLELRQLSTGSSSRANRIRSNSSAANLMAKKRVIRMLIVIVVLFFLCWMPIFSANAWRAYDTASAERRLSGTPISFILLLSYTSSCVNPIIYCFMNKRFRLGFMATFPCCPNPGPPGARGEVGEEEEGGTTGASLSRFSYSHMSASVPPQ

Key:
CCK2 receptor = target: T1, CCK2 receptor (Homo sapiens, UniProt P32239); experiment: CCK2 binding assay ([125I]-BH-CCK-8S displacement, HEKZFP membranes); details: membranes of doxycycline-induced HEKZFP cells; 20 pM [125I]-BH-CCK-8S; 60 min at 21±3° C.
T1 construct: analyzed for ZFP expression as well as CCK2R induction upon addition of doxycycline to the culture medium; endogenous in cells
T1 sequence (P32239 1-447): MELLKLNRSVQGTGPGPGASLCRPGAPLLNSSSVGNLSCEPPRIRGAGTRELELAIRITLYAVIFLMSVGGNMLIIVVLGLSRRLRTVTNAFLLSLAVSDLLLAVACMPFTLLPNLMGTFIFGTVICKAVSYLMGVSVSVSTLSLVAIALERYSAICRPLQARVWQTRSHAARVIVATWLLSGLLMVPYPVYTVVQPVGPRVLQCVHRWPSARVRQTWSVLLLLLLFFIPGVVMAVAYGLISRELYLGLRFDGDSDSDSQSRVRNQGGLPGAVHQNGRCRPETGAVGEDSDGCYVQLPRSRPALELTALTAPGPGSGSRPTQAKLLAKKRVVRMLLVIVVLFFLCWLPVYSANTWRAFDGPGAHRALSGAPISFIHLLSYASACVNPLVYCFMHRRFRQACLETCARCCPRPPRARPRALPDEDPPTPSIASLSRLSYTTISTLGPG
Experimental: 2. CCK2 Assay Development and Data Generation
Zinc Finger Proteins (ZFP) specific for the CCK2R gene were identified by Sangamo Biosciences. The ZFP domain was fused with the herpes simplex virus VP16 activation domain, and the fusion protein was subsequently cloned into the pcDNA3 mammalian expression vector (Invitrogen, San Diego, Calif.). […] After 2 weeks of selection in culture medium containing […] Zeocin (Invitrogen), sixty drug-resistant stable clones were isolated and analyzed for ZFP expression as well as CCK2R induction upon addition of doxycycline to the culture medium.
HEKZFP cells were grown in DMEM supplemented with L-glutamine (2 mM), penicillin (50 units/mL) and streptomycin (50 μg/mL) and 10% FBS (v/v).
Membranes were prepared from the HEKZFP cells after induction. […] The thawed pellets were homogenized using a Polytron PT-10 (7×1 s). The homogenates were centrifuged for 5 min at 1500 rpm (600×g), and the resulting pellets were discarded. The supernatants were re-centrifuged in order to collect the receptor-membrane pellets (25 min 15,000 rpm; 39,800×g), which were re-suspended in buffer A.
The assay preparation was incubated for 1 h at 21±3° C., and then the assay was terminated by rapid filtration of the preparation under reduced pressure. The loaded filters were washed three times using undiluted PBS (100 μL), and then 100 μL of scintillation fluid was added to the filter plate. Bound radioactivity was determined using a Topcount (Packard BioScience, Meriden, Conn.) with a count time of 1 min. […] To validate the radioligand concentration and incubation time for the assay, saturation and kinetic binding studies were also conducted (see M. F. Morton, The Pharmacological Characterization of Cholecystokinin Receptors in the Human Gastrointestinal Tract. PhD Thesis, University of London, 2000). […] The assay was then terminated according to the procedure outlined above.
3. Data Analysis for CCK1 and CCK2 Binding Assays
The pKi values were determined using the equation of Y.-C.
[formula] […]

CCK-1 receptor = target: T2, CCK-1 receptor (Homo sapiens, UniProt P32238); experiment: CCK1 binding assay ([125I]-BH-CCK-8S displacement, CHO-K1 membranes); details: membranes of CHO-K1 cells stably transfected with the CCK-1 receptor; 20 pM [125I]-BH-CCK-8S; 0.3 μM PD-134,308 present; 60 min at 21±3° C.
T2 construct: expressed in transfected cells; host or cells: CHO-K1
Experimental: 1. CCK1 Assay Development and Data Generation
CHO-K1 cells that had undergone stable transfection with the CCK-1 receptor were grown in DMEM supplemented with L-glutamine (2 mM), penicillin (50 units/mL) and streptomycin (50 μg/mL). Cells were cultured under continuous G418 selection (2 mM) and were harvested using a rubber cell scraper. CHO-K1 cells were sub-cultured a maximum of ten times before being reseeded from the original stocks.
Membranes were prepared from the stably transfected CHO-K1 cells. […]
All assays were conducted in 96-well plates (GF/B millipore filter plates) using buffer A, with 0.3 μM PD-134,308, for the dilutions. […] Total binding of [^125I]-BH-CCK-8S was determined in the presence of 15 μL of buffer A. Non-specific binding of [^125I]-BH-CCK-8S was determined in the presence of 15 μL of 100 μM 2-naphthalenesulphonyl L-aspartyl-(2-phenethyl)amide (2-NAP: see R. A. Hull et al. Br. J. Pharmacol. 1993, 108:734-740), a CCK-1 receptor selective antagonist that is structurally unrelated to the radioligand [^125I]-BH-CCK-8S. […] Bound radioactivity was determined using a gamma counter (count time=1 min). […]
The pKi values were determined using the equation of Y.-C. […]

Compound | CCK2 pKi (CCK2 receptor) | CCK1 pKi (CCK-1 receptor)
O=C(N[C@H](Cc1ccc(Cl)c(Cl)c1)C(=O)O)c1ccc(Cl)cc1NS(=O)(=O)c1cccc2nsnc12 [Example 118, (R)-2-[2-(Benzo[1,2,5]thiadiazole-4-sulfonylamino)-4-chloro-benzoylamino]-3-(3,4-dichloro-phenyl)-propionic acid] | 6.3 | –
CC(C)(CNC(=O)c1ccc(Cl)cc1NS(=O)(=O)c1cccc2nsnc12)c1ccc(Cl)cc1 [Example 7, 2-(Benzo[1,2,5]thiadiazole-4-sulfonylamino)-4-chloro-N-[2-(4-chloro-phenyl)-2-methyl-propyl]-benzamide] | 5.1 | 7.3
O=C(N[C@@H](Cc1ccc(F)c(Br)c1)C(=O)O)c1cc(Cl)c(Cl)cc1NS(=O)(=O)c1cccc2nsnc12 [Example 157, (S)-2-[2-(Benzo[1,2,5]thiadiazole-4-sulfonylamino)-4,5-dichloro-benzoylamino]-3-(3-bromo-4-fluoro-phenyl)-propionic acid] | – | 6.8
O=C(N[C@@H](Cc1ccc(Cl)c(Cl)c1)C(=O)O)c1ccc(Cl)cc1NS(=O)(=O)c1cccc2nsnc12 [Example 117, (S)-2-[2-(Benzo[1,2,5]thiadiazole-4-sulfonylamino)-4-chloro-benzoylamino]-3-(3,4-dichloro-phenyl)-propionic acid] | 7.8 | –
